Literature values in patent US20220031684A1, “PROPHYLACTIC EFFICACY OF SEROTONIN 4 RECEPTOR AGONISTS AGAINST STRESS” (THE TRUSTEES OF COLUMBIA UNIVERSITY IN THE CITY OF NEW YORK, priority 2019, published 2022).
Counter-ions that a name gives are not always drawn.

System: 5-HT4R
Conditions: vs other receptors; cited from earlier work

In the case of `COCCCN1CCC(NC(=O)c2cc(Cl)c(N)c3c2OCC3)CC1` [Prucalopride, 4-amino-5-chloro-2,3-dihydro-N-[1-3-methoxypropyl)-4-piperidinyl]-7-benzofuran carboxamide monohydrochloride], the “selectivity for 5HT4R” value is given as >290-fold.
